# Reported melting point values for industrial, environmental and drug-like chemicals

Source: data files of OPERA 2.9 (Mansouri et al.), github.com/kmansouri/OPERA.

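OPERA's authors assembled the values from existing databases and did not measure them anew. A listed value is a point estimate from one report or more. Method and conditions are not stated for these values. The measured form (salt, isomer or mixture) is not always the one drawn. Some entries may be limits or estimates that an upstream database listed as plain numbers.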

The melting point is given in degrees Celsius.
"–" marks a cell with nothing listed here.
The databases behind each value are named after "via".

compound,name,mp (°C),via
CCN(CC)c1ccc2cc(-c3nc(=O)c4ccccc4[nH]3)c(=O)oc2c1,–,203.2,eChemPortal
CC(CCC(COC(=O)CC(O)C(=O)OCC(CCC(C)CC(C)(C)C)C(C)CC(C)(C)C)C(C)CC(C)(C)C)CC(C)(C)C (stereo unspecified),–,-12.4,eChemPortal
Cc1nc(-c2ccccc2)cs1,2-Methyl-4-phenylthiazole,53.5,OCHEM
O=C1CCC(C(=O)O)CC1,4-Ketocyclohexanecarboxylic acid,63,OCHEM
COCCCOc1cc(C[C@@H](C[C@H](N=[N+]=[N-])[C@@H]2C[C@@H](C(C)C)C(=O)O2)C(C)C)ccc1OC,–,60.6,eChemPortal
c1ccc2cc3c(ccc4ccccc43)cc2c1,–,159,"OCHEM, PubChem, QSARDB"
O=[N+]([O-])c1cc(CCl)c2c(c1)COCO2,"8-Chloromethyl-6-nitro-4H-benzo[1,3]dioxine",95,OCHEM
CC(Oc1ccc(Cl)c(Cl)c1)C(=O)O (stereo unspecified),"2-(3,4-Dichlorophenoxy)propanoic acid",126,OCHEM
O=C(O)CCc1ccc(-c2ccccc2)o1,3-(5-Phenyl-2-furyl)propanoic acid,119,OCHEM
N=c1[nH]c(-c2ccccc2)cn1N=Cc1ccccc1,–,203,OCHEM
CN(C)S(=O)(=O)c1cccc(C(=O)NN)c1,"3-(Hydrazinecarbonyl)-N,N-dimethylbenzene-1-sulfonamide",150,OCHEM
NC(=S)c1ccc(C(=O)O)cc1,4-Carbamothioylbenzoic acid,265,OCHEM
CC(=O)O[C@H]1[C@H](O[Si](C)(C)C(C)(C)C)[C@@H](CO[Si](C)(C)C(C)(C)C)O[C@H]1n1cnc2c(N)ncnc21,9-(2-O-acetyl-beta-d-arabinofuranosyl)adenine,195,OCHEM
CCCCOc1ccc(-c2ccc(-c3ccc(CC)cc3)c(F)c2)c(F)c1F,–,83,eChemPortal
Nc1ccc(N2CCNC(=O)C2)c(Cl)c1,4-(4-Amino-2-chlorophenyl)piperazin-2-one,148,OCHEM
CCCCc1ccc(Cn2cncn2)cc1,"1-(4-Butylbenzyl)-1H-1,2,4-triazole",37.5,OCHEM
Nc1ccc(-c2csc(N)n2)cc1,"4-(4-Aminophenyl)-1,3-thiazol-2-amine",179,OCHEM
Nc1nc(-c2ccccc2)c(-c2ccccc2)o1,"2-Amino-4,5-diphenyloxazole",151,OCHEM
CCOC(=O)C(C)(C)Oc1ccc(Cl)cc1,Clofibrate,20.35,"OCHEM, PubChem"
O=C(O)C=Cc1cn(-c2ccccc2)nc1-c1ccc(F)cc1,–,230,OCHEM
CCC(=O)c1ccc(OCC(=O)O)cc1,(4-Propionyl-phenoxy)-acetic acid,132,OCHEM
COc1nc(OC)nc(C(=O)c2cccc(F)c2N(C)S(=O)(=O)C(F)F)n1,–,102.8,eChemPortal
CNc1nc(C)cs1,"N,4-dimethyl-1,3-thiazol-2-amine",70,OCHEM
CC(C(=O)c1ccc(Cl)cc1)C1CC1 (stereo unspecified),1-(4-Chlorophenyl)-2-cyclopropylpropan-1-one,-63,eChemPortal
N#CC=C(Cl)c1ccccc1,3-Chloro-3-phenyl-2-propenenitrile,33,OCHEM
Cc1cc([N+](=O)[O-])ccc1N=Nc1c(O)c(C(=O)Nc2ccccc2C)cc2ccccc12,–,285,eChemPortal
CC(=O)OCC(=O)C1=CC[C@@H]2[C@H]3CCC4=CC(=O)C=C[C@@]4(C)[C@@H]3[C@H](OC(C)=O)C[C@@]12C,–,243.5,eChemPortal
O=C1CCCCCN1C(=O)NCCCCCCNC(=O)N1CCCCCC1=O,–,85.55,eChemPortal
O=C(CS)OCC(COC(=O)CS)(COC(=O)CS)COC(=O)CS,–,48.12,eChemPortal
CCOc1ccc(C(C)=O)cc1CCl,1-[3-(Chloromethyl)-4-ethoxyphenyl]ethan-1-one,81,OCHEM
CC(C)Oc1ccc(C(=O)NN)cc1,4-isopropoxybenzohydrazide,118,OCHEM
NC(=O)c1cc(-c2ccccc2)sc1N,2-amino-5-phenylthiophene-3-carboxamide,205,OCHEM
CCCCCCCC(=O)c1ccc(O)c(C(=O)O)c1,2-Hydroxy-5-(1-oxooctyl)benzoic acid,115,eChemPortal
O=C(O)Cc1cccc2cccnc12,(Quinolin-8-yl)acetic acid,131,OCHEM
Cc1ccc(-c2nnc(Cl)c3ccccc23)cc1C,"1-chloro-4-(3,4-dimethylphenyl)phthalazine",242,OCHEM
COc1cc(OCc2ccccc2)ccc1C=O,4-Benzyloxy-2-methoxybenzaldehyde,95.5,OCHEM
Cc1cc2oc(=O)cc(CCl)c2cc1C,"4-(chloromethyl)-6,7-dimethyl-2H-chromen-2-one",189,OCHEM
CN(C)c1ccc(C(=C2C=CC(=[N+](C)C)C=C2)c2c(O)c(S(=O)(=O)[O-])cc3cc(S(=O)(=O)[O-])ccc23)cc1.[Na+],Acid green 50,323.1,eChemPortal
NC(=O)NCC1CC1,(cyclopropylmethyl)urea,118,OCHEM
CC1=CC(C)C(C2OCC3COC(C4CCC(C)=CC4C)N32)CC1 (stereo unspecified),–,100,eChemPortal
CC1=NN(Cc2ccccc2)C(=O)C1,"2-Pyrazolin-5-one, 1-benzyl-3-methyl-",176,OCHEM
O=C(O)C1(c2cccc(F)c2)CCC1,1-(3-Fluorophenyl)cyclobutane-1-carboxylic acid,68,OCHEM
O=C(O)CCNc1ccccc1,N-Phenyl-beta-alanine,58,OCHEM
CC(C)CCC(=O)c1ccccc1,4-Methyl-1-phenylpentan-1-one,-2,OCHEM
O=C(O)CCN1C(=O)CCC1=O,"3-(2,5-dioxopyrrolidin-1-yl)propanoic acid",132,OCHEM
COC(=O)CCN[N+](C)(C)C.[Br-],–,121.8,eChemPortal

Excerpt, the opening 4 entries:

compound,name,mp (°C),via
CCN(CC)c1ccc2cc(-c3nc(=O)c4ccccc4[nH]3)c(=O)oc2c1,–,203.2,eChemPortal
CC(CCC(COC(=O)CC(O)C(=O)OCC(CCC(C)CC(C)(C)C)C(C)CC(C)(C)C)C(C)CC(C)(C)C)CC(C)(C)C (stereo unspecified),–,-12.4,eChemPortal
Cc1nc(-c2ccccc2)cs1,2-Methyl-4-phenylthiazole,53.5,OCHEM
O=C1CCC(C(=O)O)CC1,4-Ketocyclohexanecarboxylic acid,63,OCHEM